Here are results for 10 molecules from patent US9790218B2, “Small molecule activators of calcium-activated chloride channels and methods of use” (The Regents of the University of California, priority 2011, dated 2017).

Chains of the proteins cited; added tags and fusions are not shown. A line that says so, or that is headed by a name, gives the form on record, which may keep a tag or linker. Residues count along the entry.
UniProt Q5XXA6, 42-1049 with tags or gaps isoform 5 DEL539-564 limits assumed: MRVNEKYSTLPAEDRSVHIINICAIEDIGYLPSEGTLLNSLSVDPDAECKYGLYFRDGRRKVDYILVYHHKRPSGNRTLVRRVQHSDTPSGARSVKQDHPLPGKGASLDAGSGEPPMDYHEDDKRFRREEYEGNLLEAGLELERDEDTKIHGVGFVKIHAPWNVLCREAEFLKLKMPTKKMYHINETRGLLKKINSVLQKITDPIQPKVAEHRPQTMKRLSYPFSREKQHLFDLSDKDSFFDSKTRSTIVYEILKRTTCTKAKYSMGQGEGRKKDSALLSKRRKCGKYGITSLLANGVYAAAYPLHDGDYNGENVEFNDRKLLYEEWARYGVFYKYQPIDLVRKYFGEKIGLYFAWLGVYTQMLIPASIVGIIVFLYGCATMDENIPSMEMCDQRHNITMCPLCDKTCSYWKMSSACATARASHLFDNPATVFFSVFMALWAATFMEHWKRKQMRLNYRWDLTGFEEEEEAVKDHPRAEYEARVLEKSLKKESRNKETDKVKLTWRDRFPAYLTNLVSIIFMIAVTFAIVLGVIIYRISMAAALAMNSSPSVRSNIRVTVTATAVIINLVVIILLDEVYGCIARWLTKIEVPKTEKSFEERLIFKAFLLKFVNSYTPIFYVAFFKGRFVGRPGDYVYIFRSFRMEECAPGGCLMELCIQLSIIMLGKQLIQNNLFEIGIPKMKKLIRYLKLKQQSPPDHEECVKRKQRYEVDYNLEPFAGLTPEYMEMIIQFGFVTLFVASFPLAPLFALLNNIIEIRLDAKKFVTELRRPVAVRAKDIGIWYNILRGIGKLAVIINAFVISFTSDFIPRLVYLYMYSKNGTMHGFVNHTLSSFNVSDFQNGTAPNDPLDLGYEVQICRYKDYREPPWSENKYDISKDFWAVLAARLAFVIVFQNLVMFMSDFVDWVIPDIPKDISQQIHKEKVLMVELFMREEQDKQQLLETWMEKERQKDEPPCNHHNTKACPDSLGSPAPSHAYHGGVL

For the assay, the target named is human TMEM16A (Homo sapiens, UniProt Q5XXA6, DEL476-501). The assay is described as follows: Fluorescence plate reader assay of TMEM16A-mediated I^− influx (YFP halide sensor). It counts as cell-based. The note with it: Eact analogs.
For `COc1cc(C(=O)N(CC2CCCO2)c2nc(-c3ccccc3)cs2)cc(OC)c1OC` (stereo not shown), the half-maximal effective concentration (EC50) (as a rule, the midpoint of the concentration-response curve) worked out at 4 µM. Consider `COc1cc(C(=O)N(CC2CCCO2)c2nc(-c3ccc(Cl)cc3)cs2)cc(OC)c1OC` (stereo not shown), for which the EC50 is 3 µM. The EC50 values of the last two molecules are within 1.5-fold of each other. Molecule `COc1cc(C(=O)N(Cc2ccccc2)c2nc(-c3ccccc3)cs2)cc(OC)c1OC` registered a 50% effective concentration (EC50) of 1 µM. `COc1cc(C(=O)N(Cc2ccco2)c2nc(-c3ccc(F)cc3)cs2)cc(OC)c1OC`: the EC50 was found to be 9 µM. For `COc1cc(C(=O)N(Cc2ccccc2)c2nc(-c3ccc(Cl)cc3)cs2)cc(OC)c1OC` the value was 4 µM; for `COc1cc(C(=O)N(Cc2ccco2)c2nc(-c3ccccc3)cs2)cc(OC)c1OC`, 9 µM; for `COc1ccc(-c2csc(N(CC3CCCO3)C(=O)c3cc(OC)c(OC)c(OC)c3)n2)cc1` (stereo not shown), 8 µM.

In turn, `COCCN(C(=O)c1cc(OC)c(OC)c(OC)c1)c1nc(-c2ccc(OC)cc2)cs1` showed a half-maximal effective concentration (EC50) of 5 µM. Compared with the last molecule, the EC50 is about 1.6-fold lower. For `COc1ccc(OC)c(-c2csc(N(Cc3ccccc3)C(=O)c3cc(OC)c(OC)c(OC)c3)n2)c1` the value was 5 µM; for `COc1cc(C(=O)N(CC2CCCO2)c2nc(-c3ccc(F)cc3)cs2)cc(OC)c1OC` (stereo not shown), 3 µM.
